Biological target: T1, TSPO (Homo sapiens, UniProt P30536)
T1 construct: from tissue; host or cells: isolated human leukocytes (membranes)
Assay: In vitro TSPO binding assay, competition with [3H]PK11195 in membrane of human leukocytes

By UniProt entry, the sequences of proteins in these tests, tags left out.
UniProt P30536, whole entry: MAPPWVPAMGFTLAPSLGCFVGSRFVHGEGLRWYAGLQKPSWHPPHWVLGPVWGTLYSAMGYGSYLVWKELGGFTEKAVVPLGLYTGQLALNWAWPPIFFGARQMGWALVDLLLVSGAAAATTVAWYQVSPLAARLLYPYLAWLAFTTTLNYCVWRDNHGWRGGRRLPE

## CCC(C)N(C)C(=O)c1cc2ccccc2c(-c2ccccc2Cl)n1 (stereo not shown) [PK11195, reference compound]
  Ki: 1.34 nM
